Values of other authors, collected in US7109245B2, “Vasoconstrictor cannabinoid analogs” (priority 2001, dated 2006).

Chains of the proteins cited; added tags and fusions are not shown.
UniProt P21554, whole entry, species assumed: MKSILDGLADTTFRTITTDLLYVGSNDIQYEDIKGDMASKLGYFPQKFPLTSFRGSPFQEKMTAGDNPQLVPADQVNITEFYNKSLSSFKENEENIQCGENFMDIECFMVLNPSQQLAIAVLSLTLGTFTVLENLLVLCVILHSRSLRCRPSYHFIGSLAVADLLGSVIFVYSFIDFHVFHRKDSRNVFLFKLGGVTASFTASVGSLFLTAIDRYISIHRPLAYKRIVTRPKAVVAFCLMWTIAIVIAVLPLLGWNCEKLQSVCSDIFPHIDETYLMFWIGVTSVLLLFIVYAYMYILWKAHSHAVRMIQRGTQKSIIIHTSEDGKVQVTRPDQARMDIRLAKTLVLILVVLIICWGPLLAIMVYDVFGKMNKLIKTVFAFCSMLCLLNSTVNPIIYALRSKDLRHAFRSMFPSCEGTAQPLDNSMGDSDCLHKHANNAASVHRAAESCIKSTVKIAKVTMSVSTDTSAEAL

Molecular target: brain cannabinoid (CB1) receptor (Homo sapiens, UniProt P21554)
Conditions: cited from earlier work

C=C(C)[C@@H]1CCC(C)=C[C@H]1c1c(O)cc(CCCCC)cc1O [cannabidiol]
binding to CB1 receptor: does not bind to CB1 receptors
